From BigSolDB 2.1

Cc1ccccc1S(N)(=O)=O
solubility (mole fraction)
Conditions	in acetone	in acetonitrile	in ethanol	in ethyl acetate	in isobutanol	in isopropanol	in methanol	in n-butanol	in n-propanol
289.15 K	–	0.0258	–	–	–	–	–	–	–
293.65 K	0.0973	–	0.0166	0.0336	0.0059	0.00915	0.0269	0.0083	0.0103
